Test results: patent publication US7229825B2, “Double-transfected cell line useful for the identification of transport inhibitors” (Deutches Krebsforschungszentrum Stiftung des Offentlichen …, priority 2001, dated 2007)

Test system: human OATP8 and MRP2 (MDCK-MRP2/OATP8 cells)
Experiment: Transcellular transport of organic anions across MDCK-MRP2/OATP8 cells on Transwell membrane inserts
Settings: substrate in basolateral compartment, 37° C., apical compartment measured; MDCK-MRP2/OATP8 compared with MDCK-OATP8, MDCK-Co (and MDCK-MRP2) cells

Substance: dehydroepiandrosterone 3-sulfate [DHEAS]
- transcellular transport (basolateral to apical): much higher velocities
